Reference: ChEMBL document CHEMBL4334470, “Small molecule modulators targeting protein kinase CK1 and CK2” (Eur J Med Chem, 2019)
pKi: −log10 of the molar value.

Chains of the proteins cited; added tags and fusions are not shown.
UniProt P68400, whole entry: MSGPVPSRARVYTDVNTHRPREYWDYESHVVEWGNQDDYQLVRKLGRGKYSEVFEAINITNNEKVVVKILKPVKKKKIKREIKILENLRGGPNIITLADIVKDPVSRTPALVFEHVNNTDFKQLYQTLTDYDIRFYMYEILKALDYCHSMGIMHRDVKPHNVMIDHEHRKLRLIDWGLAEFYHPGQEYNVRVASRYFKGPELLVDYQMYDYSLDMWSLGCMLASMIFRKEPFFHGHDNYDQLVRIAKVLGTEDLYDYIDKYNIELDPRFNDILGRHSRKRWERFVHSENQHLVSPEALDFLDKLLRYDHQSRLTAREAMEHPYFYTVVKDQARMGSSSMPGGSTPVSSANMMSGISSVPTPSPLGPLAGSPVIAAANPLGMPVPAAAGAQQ

Tests used:
[1] = target: T1, Casein kinase II subunit alpha (Homo sapiens, UniProt P68400); assay: Inhibition of CK2alpha in human PLC1 cells using (Arg)3(Glu)3Thr(Glu)3 as substrate after 24 hrs in presence of [32P]gammaGTP; assay type: cell-based
[2] = target: T1, Casein kinase II subunit alpha; assay: Inhibition of CK2alpha (unknown origin)

| SMILES | pKi [1] | pKi [2] |
| --- | --- | --- |
| CN(C)c1nc2c(Br)c(Br)c(Br)c(Br)c2[nH]1 | 5.35 | – |
| Cc1cc(O)c2c(c1)C(=O)c1cc(O)cc(O)c1C2=O [EMODIN] | – | 5.82 |
